## OPERA 2.9 data: logP (octanol/water) values

Values as listed in the OPERA 2.9 repository of K. Mansouri.

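The numbers are reported measurements, compiled and curated for the OPERA QSAR suite. One number stands for a compound and property, with no spread given. How each value was measured is not recorded, so precision varies. The measured form (salt, isomer or mixture) is not always the one drawn. Some upstream entries may be estimates or bounds without being marked so.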

logP is the log10 of the octanol-water partition coefficient; higher is more lipophilic. The databases behind each value are named after "via".

- O=c1[nH]c(=O)n([C@@H]2O[C@H](CO)C[C@@H]2F)cc1F: log Kow -0.72 (via OCHEM)
- O=C1C(=C2Sc3ccccc3C2=O)Sc2ccccc21: log Kow 3.53 (via eChemPortal)
- CC(C)C(C)N (stereo not given) [1,2-Dimethylpropylamine]: log Kow 1.1 (via OCHEM)
- COc1ccc(OC)c([N+](=O)[O-])c1 [Benzene, 1,4-dimethoxy-2-nitro-]: log Kow 1.88 (via eChemPortal)
- O=C1N=C(Nc2ccc(NC3=NC(=O)c4c(Cl)c(Cl)c(Cl)c(Cl)c43)cc2)c2c(Cl)c(Cl)c(Cl)c(Cl)c21: log Kow 3.959 (via eChemPortal)
- COC(=O)CC(O)(CC(=O)OC)C(=O)OC [1,2,3-Propanetricarboxylic acid, 2-hydroxy-, trimethyl ester]: log Kow 0.7 (via eChemPortal)
- C1=CCCC2OC2CCC=CCC1 (stereo not given) [1,2-Epoxy-5,9-cyclododecadiene]: log Kow 3.39 (via eChemPortal)
- CC(=O)OCN1C(=O)C2CC=CCC2C1=O (stereo not given): log Kow 0.97 (via OCHEM)
- Nc1c(/N=N/c2ccc(S(=O)(=O)CCOS(=O)(=O)[O-])cc2)cc(S(=O)(=O)[O-])c(N)c1/N=N/c1ccc(S(=O)(=O)CCOS(=O)(=O)[O-])cc1.[Na+].[Na+].[Na+]: log Kow -5.4 (via eChemPortal)
- CCn1cc[n+](C)c1.CS(=O)(=O)[O-] [1-Ethyl-3-methylimidazolium methanesulfonate]: log Kow -3.1 (via eChemPortal)
- O=S(=O)([O-])CCN1CCOCC1.[Na+] [4-Morpholineethanesulfonic acid, sodium salt (1:1)]: log Kow -2.36 (via eChemPortal)
- Nc1c(S(=O)(=O)[O-])cc(NC2CCCCC2)c2c1C(=O)c1ccccc1C2=O.[Na+] [C.I. Acid Blue 62]: log Kow 0.425 (via eChemPortal)
- [K+].[O-]/[N+](=N\O)C1CCCCC1: log Kow -0.2 (via eChemPortal)
- CC1=NN(c2ccc(/N=N/[c-]3c(C)nn(-c4ccc(S(=O)(=O)[O-])cc4)c3=O)cc2)C(=O)C1/N=N/c1ccc(S(N)(=O)=O)cc1[O-].CC1=NN(c2ccc(/N=N/[c-]3c(C)nn(-c4ccc(S(=O)(=O)[O-])cc4)c3=O)cc2)C(=O)C1/N=N/c1ccc(S(N)(=O)=O)cc1[O-].[Co+3].[Na+].[Na+].[Na+] (stereo partly drawn): log Kow -2.467 (via eChemPortal)
- CN(C)c1ccc(C2(c3ccc(N(C)C)cc3)OC(=O)c3cc(N(C)C)ccc32)cc1 [Crystal Violet lactone]: log Kow 5.27 (via OCHEM)
- O=S(=O)([O-])CS(=O)(=O)[O-].[K+].[K+] [Methanedisulfonic acid potassium salt (1:2)]: log Kow -1.83 (via eChemPortal)
- O=S(=O)(O)CCN(CCO)CCO [Ethanesulfonic acid, 2-[bis(2-hydroxyethyl)amino]-]: log Kow -3.59 (via eChemPortal)
- CCCCCC(C)(O)/C=C/C1C(O)CC(O)C1C/C=C\CCCC(=O)O.NC(CO)(CO)CO (stereo partly drawn) [Carboprost tromethamine]: log Kow 3.3 (via PubChem)
- O=C(O)c1cc(S(=O)(=O)[O-])cc(Nc2nc(Nc3cc(S(=O)(=O)[O-])cc(C(=O)O)c3O)nc(Nc3cc(S(=O)(=O)[O-])cc(C(=O)O)c3O)n2)c1O.[Na+].[Na+].[Na+]: log Kow -2.67 (via eChemPortal)
- C[SiH]1O[SiH](C)O[SiH](C)O[SiH](C)O[SiH](C)O1 (stereo not given) [Cyclopentasiloxane, 2,4,6,8,10-pentamethyl-]: log Kow 6.33 (via eChemPortal)
- ClC1C=CC(Cl)C(Cl)C1Cl (stereo not given): log Kow 3.08 (via OCHEM)
- NCCNCCN [Diethylenetriamine]: log Kow -1.3 (via PubChem)
- S=C(S)NCCNC(=S)S [Ethylenebis[dithiocarbamic acid]]: log Kow -2.7 (via PubChem)
- CCOc1nc2cccc(C(=O)O)c2n1Cc1ccc(-c2ccccc2-c2nnn[nH]2)cc1 [Candesartan]: log Kow 2.11 (via eChemPortal)
- C=Cc1ccccc1C=C [1,2-Divinylbenzene]: log Kow 5.43 (via OCHEM)
- Cl.N=C(N)c1cccc([N+](=O)[O-])c1 [3-Nitrobenzene-1-carboximidamide--hydrogen chloride (1/1)]: log Kow 0.72 (via OCHEM)
- CSc1c(C)cc(O)cc1C [3,5-Dimethyl-4-(methylthio)phenol]: log Kow 3.455 (via eChemPortal)
- O=CCC=O [Malonaldehyde]: log Kow -1.16 (via PubChem)
- CCCCC(CC)(CO)CO [2-Butyl-2-ethyl-1,3-propanediol]: log Kow 2.105 (via OCHEM, eChemPortal)
- CCC(C)C [2-Methylbutane]: log Kow 4 (via eChemPortal)
- CC(=O)[C-](/N=N/c1cc([N+](=O)[O-])cc(S(=O)(=O)[O-])c1[O-])C(=O)Nc1ccccc1.CC(=O)[C-](/N=N/c1cc([N+](=O)[O-])cc(S(=O)(=O)[O-])c1[O-])C(=O)Nc1ccccc1.[Co+3].[Na+].[Na+].[Na+]: log Kow -1.95 (via eChemPortal)
- CC(=O)[O-].CCN(Cc1ccccc1)c1ccc(/C=C/c2cc[n+](CCO)cc2)cc1: log Kow -0.27 (via eChemPortal)
- COc1cc(/N=N/c2cccc(S(=O)(=O)[O-])c2)ccc1NC(=O)Nc1ccc(/N=N/c2cccc(S(=O)(=O)[O-])c2)cc1OC.[Na+].[Na+]: log Kow -2.7 (via eChemPortal)
- O=C([O-])c1cc(/N=N/c2ccc(/N=N/c3ccc(O)c(C(=O)[O-])c3)c(S(=O)(=O)[O-])c2)ccc1O.[Na+].[Na+].[Na+]: log Kow -4.45 (via eChemPortal)
- CCN(CC)CCNC(=O)C1C(C)=NC(/C=C2\C(=O)Nc3ccc(F)cc32)=C1C (stereo partly drawn) [Sunitinib]: log Kow 3.1 (via PubChem)
- CC(C)(c1ccc(OS(=O)(=O)c2ccccc2/N=N/c2c(N)ccc3c(S(=O)(=O)[O-])cccc23)cc1)c1ccc(OS(=O)(=O)c2ccccc2/N=N/c2c(N)ccc3c(S(=O)(=O)[O-])cccc23)cc1.[Na+].[Na+]: log Kow 1.76 (via eChemPortal)
- N=c1c2ncn([C@@H]3O[C@H](CO)C[C@@H]3F)c2ncn1O: log Kow -1.38 (via OCHEM)
- OC[C@@H](O)[C@@H](O[C@H]1O[C@H](CO)[C@@H](O)[C@H](O)[C@H]1O)[C@H](O)[C@@H](O)CO [4-O-alpha-D-Glucopyranosyl-D-glucitol]: log Kow -3.87 (via eChemPortal)
- CCOC(=O)CC(C)C [Ethyl isovalerate]: log Kow 2.47 (via eChemPortal)
- CC(C)CC=O [3-Methylbutanal]: log Kow 1.405 (via eChemPortal)
- NC(CO)(CO)CO.O=C(c1ccccc1)c1ccc2n1CCC2C(=O)O (stereo not given) [Ketorolac tromethamine]: log Kow -0.59 (via OCHEM)
- CNc1ccc(C(=O)O)cc1 [Benzoic acid, 4-(methylamino)-]: log Kow 1.01 (via OCHEM)
- CC(C)(N)CO.Cc1ccc(S(=O)(=O)O)cc1 [(2-Hydroxy-1,1-dimethylethyl)ammonium toluene-4-sulphonate]: log Kow 0.524 (via eChemPortal)
- Nc1cccc2c1CN(C1CCC(=O)NC1=O)C2=O (stereo not given) [Lenalidomide]: log Kow -0.4 (via PubChem)
- C[N+](C)(C)CCCc1ccccc1.[I-] [N,N,N-Trimethyl-3-phenylpropan-1-aminium iodide]: log Kow -2.02 (via OCHEM)
- Clc1cc(Cl)c(Cl)c(-c2c(Cl)c(Cl)cc(Cl)c2Cl)c1 [2,2',3,3',5,5',6-Heptachlorobiphenyl]: log Kow 7.14 (via OCHEM)
- Nc1cc(S(=O)(=O)[O-])cc2cc(S(=O)(=O)O)cc(O)c12.[Na+]: log Kow -2.3 (via eChemPortal)
- Nc1ccc(N)c(Cl)c1 [2-Chloro-1,4-diaminobenzene]: log Kow 0.44 (via eChemPortal)
- O=C1c2ccccc2C(=O)c2c(O)ccc(O)c21: log Kow 4.16 (via eChemPortal)
- COCCOCCOCCO[Si](C)(C)OCCOCCOCCOC [12,12-Dimethyl-2,5,8,11,13,16,19,22-octaoxa-12-silatricosane]: log Kow -0.38 (via eChemPortal)
- CC(O)CO.O=C(O)c1ccc2c(c1)C(=O)OC2=O: log Kow 0.9 (via eChemPortal)
- NC(CO)CO [1,3-Propanediol, 2-amino-]: log Kow -1.82 (via eChemPortal)
- O=C(O)C(=O)[C@@H](O)[C@H](O)[C@@H](O)CO [2-Keto-L-gulonic acid]: log Kow -3.08 (via eChemPortal)
- O=P([O-])([O-])C[N+]([O-])(CP(=O)([O-])[O-])CP(=O)([O-])O.[K+].[K+].[K+].[K+].[K+]: log Kow -4.3 (via eChemPortal)
- CC(=O)N(C)CCCN1c2ccccc2CCc2ccccc21: log Kow 0.12 (via OCHEM)

Excerpt, the opening 8 entries:

{"smiles": "O=c1[nH]c(=O)n([C@@H]2O[C@H](CO)C[C@@H]2F)cc1F", "log Kow": "-0.72", "via": "OCHEM"}
{"smiles": "O=C1C(=C2Sc3ccccc3C2=O)Sc2ccccc21", "log Kow": "3.53", "via": "eChemPortal"}
{"smiles": "CC(C)C(C)N", "stereo": "stereo not given", "name": "1,2-Dimethylpropylamine", "log Kow": "1.1", "via": "OCHEM"}
{"smiles": "COc1ccc(OC)c([N+](=O)[O-])c1", "name": "Benzene, 1,4-dimethoxy-2-nitro-", "log Kow": "1.88", "via": "eChemPortal"}
{"smiles": "O=C1N=C(Nc2ccc(NC3=NC(=O)c4c(Cl)c(Cl)c(Cl)c(Cl)c43)cc2)c2c(Cl)c(Cl)c(Cl)c(Cl)c21", "log Kow": "3.959", "via": "eChemPortal"}
{"smiles": "COC(=O)CC(O)(CC(=O)OC)C(=O)OC", "name": "1,2,3-Propanetricarboxylic acid, 2-hydroxy-, trimethyl ester", "log Kow": "0.7", "via": "eChemPortal"}
{"smiles": "C1=CCCC2OC2CCC=CCC1", "stereo": "stereo not given", "name": "1,2-Epoxy-5,9-cyclododecadiene", "log Kow": "3.39", "via": "eChemPortal"}
{"smiles": "CC(=O)OCN1C(=O)C2CC=CCC2C1=O", "stereo": "stereo not given", "log Kow": "0.97", "via": "OCHEM"}